Biological target: T1, Glutamate racemase (Helicobacter pylori J99, UniProt Q9ZLT0)
T1 sequence (Q9ZLT0 whole entry): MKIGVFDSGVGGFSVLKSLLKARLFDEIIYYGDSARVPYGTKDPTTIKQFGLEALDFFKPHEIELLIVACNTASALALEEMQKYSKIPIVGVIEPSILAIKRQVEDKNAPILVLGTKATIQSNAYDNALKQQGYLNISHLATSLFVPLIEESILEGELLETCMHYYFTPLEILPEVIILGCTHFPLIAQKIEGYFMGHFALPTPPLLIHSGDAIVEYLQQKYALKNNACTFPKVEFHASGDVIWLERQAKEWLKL
Experiment: Inhibition of MurI in wild type Helicobacter pylori J99

SMILES: OC1CN(C2=Nc3ccccc3C(c3ccccc3)=NC2c2cccs2)C1 (stereo unspecified)
- IC50: 500 nM
